Patent EP4781986A1, “PHARMACEUTICAL COMPOSITION HAVING IMPROVED PHARMACOKINETIC PROPERTIES” (Sichuan Purity Pharmaceutical Co., Ltd., priority 2023, dated 2025)

Amino acid sequences for entries named in this document (tags omitted). Residues count along the entry.
UniProt O60894, 27-148: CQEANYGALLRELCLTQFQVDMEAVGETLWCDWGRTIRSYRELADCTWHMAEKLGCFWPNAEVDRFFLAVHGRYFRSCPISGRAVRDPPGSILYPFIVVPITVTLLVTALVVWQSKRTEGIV
UniProt Q16602, 23-461: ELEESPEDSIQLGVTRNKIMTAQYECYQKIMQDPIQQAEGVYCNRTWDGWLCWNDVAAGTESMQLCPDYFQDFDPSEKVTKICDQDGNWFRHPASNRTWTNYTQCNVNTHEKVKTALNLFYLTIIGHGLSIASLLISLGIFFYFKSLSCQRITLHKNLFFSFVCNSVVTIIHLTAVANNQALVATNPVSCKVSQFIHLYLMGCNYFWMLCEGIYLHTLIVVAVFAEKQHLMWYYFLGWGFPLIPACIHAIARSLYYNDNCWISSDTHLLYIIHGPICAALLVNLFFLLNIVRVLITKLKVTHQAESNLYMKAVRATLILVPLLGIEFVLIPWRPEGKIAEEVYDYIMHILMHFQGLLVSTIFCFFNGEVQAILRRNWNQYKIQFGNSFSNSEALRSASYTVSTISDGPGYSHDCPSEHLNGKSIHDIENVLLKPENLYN

Molecular target: T1, CGRP receptor complex (Homo sapiens, UniProt O60894+Q16602)
T1 construct: SK-N-MC (neuroepithelioma cells) from National Science and Technology Infrastructure; host or cells: SK-N-MC
Experiment: determination of cell functional antagonism - cAMP determination
Format: cell-based
Conditions: inhibition of CGRP-stimulated cAMP formation in SK-N-MC cells
Protocol: A CGRP receptor complex was coupled with Gs in G protein, the combination of CGRP and CGRP receptor complex led to Gs activation, and cAMP (3',5'-cyclic adenosine monophosphate) was produced.
The ability of the compound of the present invention to inhibit CGRP-stimulated cAMP formation in SK-N-MC cells was determined.
SK-N-MC (neuroepithelioma cells) from National Science and Technology Infrastructure - Biomedical Materials and Cell Resources.
The SK-N-MC cells were resuscitated and cultured in advance, and a cell confluence degree should be 70%-80% before use.
4.2 A sample dilution, a tested compound and α-CGRP (human) were prepared.
The SK-N-MC cells were digested, centrifuged, then resuspended with the sample dilution, and inoculated into a 384-well plate. Each well was added with the α-CGRP (human) and the tested compound respectively, and blown and mixed evenly. The well plate was adhered with a sealing film, and placed on an enzyme-labeled incubator to incubate at 25°C.
4.4 cAMP determination: carried out according to LANCE Ultra cAMP Kit specification EucAMP tracer and ULight-anti-cAMP working solutions were prepared in the dark, respectively added into the well plate, and blown and mixed evenly. […]
4.5 A luminescence value was read by a chemiluminescent module of an automatic enzyme-labeled instrument.

Cc1cc(C[C@H](NC(=O)N2CCC(c3cc4c([nH]c3=O)SCCC4)CC2)C(=O)N2CCN(C3CCN(C)CC3)CC2)cc2cn[nH]c12 [Example 28, (S)-N-(3-(7-methyl-1H-indazole-5-yl)-1-(4-(1-methylpiperidine-4-yl)piperazine-1-yl)-1-oxopropan-2-yl)-4-(7-oxo-3,4,7,8-tetrahydro-2H-thiopyrano[2,3-b]pyridine-6-yl)piperidine-1-formamide]
IC50: 10.1 nM

[2H]C([2H])([2H])N1CCC(N2CCN(C(=O)[C@@H](Cc3cc(C)c4[nH]ncc4c3)NC(=O)N3CCC(c4cc5c([nH]c4=O)SCC5)CC3)CC2)CC1 [Example 29, (R)-N-(3-(7-methyl-1H-indazole-5-yl)-1-(4-(1-(methyl-d3)piperidine-4-yl)piperazine-1-yl)-1-oxopropan-2-yl)-4-(6-oxo-2,3,6,7-tetrahydrothieno[2,3-b]pyridine-5-yl)piperidine-1-formamide]
IC50: 0.23 nM
